Reference: patent US20260273047A1, “COMPOSITIONS AND METHODS FOR AMELIORATING ADVERSE EFFECTS OF THERAPIES” (MDX Management LLC, priority 2023, published 2026)

Assays:
[1] = tested on: MC38 colorectal carcinoma; test: Single and multi-lesion MC38 colorectal carcinoma model; assay type: in vivo, C57Bl/6 mice; settings: KX147.AB&C 3 days then KX147.AB daily + IL-2 + anti-PD-1 + anti-TNFα; controls without KX147.AB&C
Procedure: A second cancer murine model was tested to confirm and expand upon the results obtained in Example 1 above. […] One day before KX147.AB&C combination treatment was to begin and again on Day 5, mice were administered either an anti-TNFα antibody at 100 μg or vehicle (i.p.). Then on each of Days 1-3, mice were administered KX147.AB&C combination treatment (s.c.). […] KX147.AB&C treatment comprised: A: s.c. TPI-1 at 1 mg/kg; B: s.c. PolyI:C+R848, each at 20 μg; and C: s.c. Dasatinib at 2 mg/kg. KX147.AB treatment comprised: A: s.c. TPI-1 at 1 mg/kg; and B: s.c. PolyI:C+R848, each at 20 μg. Simultaneous administration of daily IL-2 administration at 10000 IU (i.p.) and anti-PD-1 administration every three days at 100 μg (i.p.) also occurred starting on Day 1 to promote T cell immunity.

MC38 = MC38 tumors treated intratumorally with TPI-1 and T cell activating agents; assay type: in vivo, C57Bl/6 mice
Procedure: Inhibition of SHP-1 was tested in vivo for tumor therapies. In short, tumor cells (i.e., MC38) were engrafted into C57Bl/6 mice and the mice administered (i) TPI-1, (ii) αPD-1 antibody, (iii) IL-2, (iv) anti-CD3/CD28 antibodies, (v) TPI-1+αPD-1 antibody, (vi) TPI-1+IL-2, (vii) TPI-1+anti-CD3/CD28 antibodies, or (viii) TPI-1+IL-2+prophylactic anti-TNFα/anti-IL-6 antibodies. Tumor growth was measured over time until the tumors reached 2.0 cm in diameters. […] IL-2 was administered at 30,000 IU by intratumoral injection every 3 days. Anti-PD-1 antibody was 205[…] 50 μg by intratumoral injection every 3 days. Anti-CD3 antibody and anti-CD28 antibody were each 205[…] 50 μg by intratumoral injection in a single dose.

IL-2: cytokine given to promote T cell immunity
MC38 tumor burden [1]: did not display a reduction in tumor burden
effect on established tumors, such as MC38, KPC, or LLC (MC38; agent alone): only minor effects
MC38 tumor growth / resistance (MC38; intratumoral, agent without SHP-1 inhibitor, or TPI-1 alone (1 mg/kg every 2 days)): strong resistance
